Chains of the proteins cited; added tags and fusions are not shown.
UniProt P35367, whole entry: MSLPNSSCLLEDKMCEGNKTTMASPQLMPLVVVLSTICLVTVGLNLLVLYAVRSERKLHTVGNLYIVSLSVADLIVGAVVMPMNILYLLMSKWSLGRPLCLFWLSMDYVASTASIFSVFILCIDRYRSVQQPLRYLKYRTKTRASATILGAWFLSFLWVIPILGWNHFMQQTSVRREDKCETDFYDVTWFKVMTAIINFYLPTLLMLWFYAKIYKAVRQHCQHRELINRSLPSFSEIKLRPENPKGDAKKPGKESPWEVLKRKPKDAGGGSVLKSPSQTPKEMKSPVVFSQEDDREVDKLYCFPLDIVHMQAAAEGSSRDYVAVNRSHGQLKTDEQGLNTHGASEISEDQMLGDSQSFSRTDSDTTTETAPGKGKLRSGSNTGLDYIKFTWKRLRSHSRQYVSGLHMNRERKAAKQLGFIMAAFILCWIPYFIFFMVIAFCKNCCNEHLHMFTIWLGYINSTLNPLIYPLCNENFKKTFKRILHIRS

Test system in the first data set: not listed separately
Nature of the data set: Half life in monkey liver microsomes incubated for 6 hrs by LC/MS analysis. The class given is ADME, Macaca mulatta, Microsome. The conditions noted are these: rhesus monkey.
A word on the half-life: it is the time in which the quantity being followed falls by half. Regarding `COc1ccccc1OCC(O)CN1CCC(=C2c3ccc(Cl)cc3CCc3cccnc32)CC1` (racemic), the half-life was determined as 1.65 min.

The target in the next data set is Histamine H1 receptor (Homo sapiens, UniProt P35367).
Settings: not given
The term IC50 denotes the point on the concentration scale where inhibition reaches its midpoint. As to `CC(=O)c1ccccc1OCC(O)CN1CCC(=C2c3ccc(Cl)cc3CCc3cccnc32)CC1` (centres undefined), the IC50 came to 21 nM. On the same count and under the same terms, with `OC(COc1ccccc1Br)CN1CCC(=C2c3ccc(Cl)cc3CCc3cccnc32)CC1` (centres undefined) the figure was 40.2 nM.

Compound `OC(COc1ccccc1F)CN1CCC(=C2c3ccc(Cl)cc3CCc3cccnc32)CC1` (centres undefined) had an IC50 of 4.74 nM. Still for that read-out and setting: with `COc1ccc(OCC(O)CN2CCC(=C3c4ccc(Cl)cc4CCc4cccnc43)CC2)cc1` (centres undefined) the figure was 12 nM; with `COc1c(OCC(O)CN2CCC(=C3c4ccc(Cl)cc4CCc4cccnc43)CC2)ccc(F)c1F` (centres undefined), 27.9 nM. Still for that read-out and setting: with `OC(COc1ccccc1Cl)CN1CCC(=C2c3ccc(Cl)cc3CCc3cccnc32)CC1` (centres undefined) the figure was 28.4 nM; with `COc1ccccc1OC[C@H](O)CN1CCC(=C2c3ccc(Cl)cc3CCc3cccnc32)CC1`, 3.67 nM. `COc1ccccc1OCC(O)CN1CCC(=C2c3ccc(Cl)cc3CCc3cccnc32)CC1` (racemic) came in with an IC50 of 2.95 nM. The compound `OC(COc1ccccc1C(F)(F)F)CN1CCC(=C2c3ccc(Cl)cc3CCc3cccnc32)CC1` (centres undefined) yielded an IC50 of 81.8 nM. The same measure, in the same setting: as for `Cc1ccccc1OCC(O)CN1CCC(=C2c3ccc(Cl)cc3CCc3cccnc32)CC1` (centres undefined), the figure is 8.9 nM. For the compound `COc1ccccc1OCCCN1CCC(=C2c3ccc(Cl)cc3CCc3cccnc32)CC1`, the 50% inhibitory concentration (IC50) stood at 9.28 nM. The compound `OC(COc1ccccc1OC(F)(F)F)CN1CCC(=C2c3ccc(Cl)cc3CCc3cccnc32)CC1` (centres undefined) registered an IC50 of 36.7 nM. Same read-out and setting: with `OC(COc1ccccc1)CN1CCC(=C2c3ccc(Cl)cc3CCc3cccnc32)CC1` (centres undefined) the figure was 6.23 nM; with `O=[N+]([O-])c1ccccc1OCC(O)CN1CCC(=C2c3ccc(Cl)cc3CCc3cccnc32)CC1` (centres undefined), 52.9 nM.

The compound `CCOc1ccccc1OCC(O)CN1CCC(=C2c3ccc(Cl)cc3CCc3cccnc32)CC1` (centres undefined) yielded an IC50 of 17.6 nM. The same measure, in the same setting: as for `COc1ccccc1OC[C@@H](O)CN1CCC(=C2c3ccc(Cl)cc3CCc3cccnc32)CC1`, the figure is 4.56 nM.

With `COc1cccc(OCC(O)CN2CCC(=C3c4ccc(Cl)cc4CCc4cccnc43)CC2)c1` (centres undefined), the IC50 was determined as 8.14 nM.

Test system in another data set: not listed separately
Nature of the data set: Intrinsic clearance in monkey liver microsomes incubated for 6 hrs by LC/MS analysis. The class given is ADME, Macaca mulatta, Microsome. Particulars: rhesus monkey, read-out: CLH. For orientation: Microsomes from liver hold many membrane-bound enzymes, among them those of drug oxidation.
As to `COc1ccccc1OCC(O)CN1CCC(=C2c3ccc(Cl)cc3CCc3cccnc32)CC1` (racemic), the microsomal CLint was 844 µL/min/mg.

(Values after ChEMBL document CHEMBL4406894, “Design, synthesis and biological evaluation of novel desloratadine derivatives with anti-inflammatory and H1 antagonize activities” (Bioorg Med Chem Lett, 2019).)
